Measurements reported in patent US11446287B2, “Compounds and methods for EP300 or CBP modulation and indications therefor” (Opna Immuno-Oncology SA, priority 2019, dated 2022).

Chains of the proteins cited; added tags and fusions are not shown. Residues count along the entry.
UniProt Q09472, 1040-1161 limits assumed: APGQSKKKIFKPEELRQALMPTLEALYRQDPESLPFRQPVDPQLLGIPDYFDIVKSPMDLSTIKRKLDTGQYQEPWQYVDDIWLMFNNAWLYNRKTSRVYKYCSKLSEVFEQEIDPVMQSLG
UniProt Q92793, 1081-1197 limits assumed: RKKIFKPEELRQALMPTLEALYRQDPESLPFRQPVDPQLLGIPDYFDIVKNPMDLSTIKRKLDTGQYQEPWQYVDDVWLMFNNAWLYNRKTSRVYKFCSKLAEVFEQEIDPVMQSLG

Assays:
[1] = target: Recombinant human EP300 containing the bromodomain (EP300-BD (1040-1161)) (Homo sapiens, UniProt Q09472); experiment: EP300 Alphascreen binding assay; details: read-out: EP300 IC50
Experimental: EP300 Alphascreen Binding Assay
(§1) Binding of compounds of Formula (I) with EP300 was assessed using Alphascreen™ binding assay. The inhibition of the interaction between the EP300 bromodomain and its acetylated target protein was measured quantitatively using recombinant EP300 protein, an acetylated Histone 3 peptide and AlphaScreen™ technology. In absence of inhibition of the EP300 protein bound to AlphaScreen™ nickel chelate acceptor beads can interact with the acetylated Histone 3 peptide which is immobilized by the AlphaScreen™ Streptavidin coated beads. This interaction brings donor and acceptor beads in proximity. The close proximity allows the singlet oxygen produced by laser excitation of the donor beads to reach the acceptor beads and generate a luminescence signal. EP300 inhibitors result in a decrease in the proximity signal through an inhibition of the EP300—acetylated peptide interaction.
Recombinant human EP300 containing the bromodomain (EP300-BD (1040-1161)) was prepared and purified as described in protein expression and purification session. The peptide is human Histone H345-64K56Ac-Biotin (Anaspec CA, USA).
Protocol for EP300 assay: All components were prepared in buffer composed of 50 mM HEPES pH 7.5, 50 mM NaCl, 0.01% BSA, 0.01% Triton X-100, 2 mM DTT. […] 60 minutes after bead addition, Alpha signal is read on the Envision spectrometer (λEx 680 nm, λEm 520-620 nm). […]

[2] = target: Recombinant human BRD4 containing dual bromodomains (BRD4-BD12 (1-477)) (Homo sapiens, UniProt O60885); experiment: BRD4 Alphascreen binding assay; details: read-out: BRD4 IC50
Experimental: BRD4 Alphascreen Binding Assay
Binding of compounds of Formula (I) with BRD4 was assessed using Alphascreen binding assay. The inhibition of the interaction between BRD4 and its acetylated target protein was measured quantitatively using recombinant BRD4 protein, an acetylated Histone 4 peptide, and AlphaScreen™ technology. In absence of inhibition of the BRD4 protein bound to AlphaScreen™ nickel chelate acceptor beads can interact with the acetylated Histone 4 peptide which was immobilized by the AlphaScreen™ Streptavidin coated beads. This interaction brings donor and acceptor beads in proximity. The close proximity allows the singlet oxygen produced by laser excitation of the donor beads to reach the acceptor beads and generate a luminescence signal. BRD4 inhibitors result in a decrease in the proximity signal through an inhibition of the BRD4—acetylated peptide interaction.
Recombinant human BRD4 containing dual bromodomains (BRD4-BD12 (1-477)) was prepared and purified as described in protein expression and purification session. The peptide was human Histone H41-21K5AcK8AcK12AcK16Ac-Biotin (Anaspec CA, USA).
Protocol for BRD4 assay: All components are prepared in buffer composed of 50 mM HEPES pH 7.5, 50 mM NaCl, 0.01% BSA, 0.01% Triton X-100, 2 mM DTT. […] 30 minutes after bead addition, Alpha signal was read on the Envision spectrometer (λEx 680 nm, λEm 520-620 nm). […]

[3] = target: Recombinant human CBP containing the bromodomain (CBP-BD (1043-1159)) (Homo sapiens, UniProt Q92793); experiment: CBP Alphascreen binding assay; details: read-out: CREBBP (CBP) IC50
Experimental: CBP Alphascreen Binding Assay
as §1, with “with CBP” for “with EP300”, “the CBP” for “the EP300”, “recombinant CBP,” for “recombinant EP300 protein,”, “which was” for “which is”, “signal. CBP” for “signal. EP300”, “the CBP—acetylated” for “the EP300—acetylated”
Recombinant human CBP containing the bromodomain (CBP-BD (1043-1159)) was prepared and purified as described in protein expression and purification session. The peptide was human Histone H345-64K56Ac-Biotin (Anaspec CA, USA).
Protocol for CBP assay: All components are prepared in buffer composed of 50 mM HEPES pH 7.5, 50 mM NaCl, 0.01% BSA, 0.01% Triton X-100, 2 mM DTT. […] 60 minutes after bead addition, Alpha signal was read on the Envision spectrometer (λEx 680 nm, λEm 520-620 nm). […]

## CCOc1cc(C(=O)O)nc(OCC)c1-c1cn(-c2ccc(C3CC3)nc2)c2ncc(-c3c(C)noc3C)cc12
[1]
  IC50: 0.1 to 1000 nM
[2]
  IC50: 1000 to 8000 nM
[3]
  IC50: 0.1 to 1000 nM
